pIC50: −log10 of the molar value.
Legend:
[1] = molecular target: recombinant Stat3 (binding to EGFR Y1068 phosphododecapeptide) (Homo sapiens, UniProt P40763); test: Stat3 SH2/pY-peptide SPR binding inhibition assay; settings: Stat3 500 nM, immobilized EGFR Y1068 phosphododecapeptide; read-out: SPR IC50 (competition with pY-peptide for binding to Stat3)
Method: Binding of recombinant Stat3 (500 nM) to a BiaCore sensor chip coated with a phosphododecapeptide based on the amino acid sequence surrounding Y1068 within the EGFR was measured in real time by SPR (Response Units) in the absence (0 μM) or presence of increasing concentrations (0.1 to 1,000 μM) of Cpd3 (panel A), Cpd30 (panel B), Cpd188 (panel C), Cpd3-2 (panel D), Cpd3-7 (panel E) and Cpd30-12 (panel F). Data shown are representative of 2 or more experiments. The equilibrium binding levels obtained in the absence or presence of compounds were normalized (response obtained in the presence of compound÷the response obtained in the absence of compound×100), plotted against the log concentration (nM) of the compounds (panel G). The experimental points fit to a competitive binding curve that uses a four-parameter logistic equation (see exemplary methods for details). These curves were used to calculate IC50 (Table 1).
Stat3 SH2/pY-peptide binding assay. Stat3 binding assays were performed at 25° C. with a BIAcore 3000 biosensor using 20 mM Tris buffer pH 8 containing 2 mM mercaptoethanol and 5% DMSO as the running buffer (Kim et al., 2005). Phosphorylated and control non-phosphorylated biotinylated EGFR derived dodecapeptides based on the sequence surrounding Y1068 (Shao et al., 2004) were immobilized on a streptavidin coated sensor chip (BIAcore inc., Picataway N.J.). The binding of Stat3 was conducted in 20 mM Tris buffer pH 8 containing 2 mM β-mercaptoethanol at a flow rate of 10 uL/min for 1-2 minute. […] IC50 values were determined by plotting % maximum response as a function of log concentration of compound and fitting the experimental points to a competitive binding model using a four parameter logistic equation: R=Rhigh−(Rhigh−Rlow)/(1+conc/A1)^A2, where R=percent response at inhibitor concentration, Rhigh=percent response with no compound, Rlow=percent response at highest compound concentration, A2=fitting parameter (slope) and A1=IC50 (BIAevaluation Software version 4.1). […]

The chains behind the UniProt entries cited, without tags or fusion partners. Residues count along the entry.
UniProt P40763, whole entry, species assumed: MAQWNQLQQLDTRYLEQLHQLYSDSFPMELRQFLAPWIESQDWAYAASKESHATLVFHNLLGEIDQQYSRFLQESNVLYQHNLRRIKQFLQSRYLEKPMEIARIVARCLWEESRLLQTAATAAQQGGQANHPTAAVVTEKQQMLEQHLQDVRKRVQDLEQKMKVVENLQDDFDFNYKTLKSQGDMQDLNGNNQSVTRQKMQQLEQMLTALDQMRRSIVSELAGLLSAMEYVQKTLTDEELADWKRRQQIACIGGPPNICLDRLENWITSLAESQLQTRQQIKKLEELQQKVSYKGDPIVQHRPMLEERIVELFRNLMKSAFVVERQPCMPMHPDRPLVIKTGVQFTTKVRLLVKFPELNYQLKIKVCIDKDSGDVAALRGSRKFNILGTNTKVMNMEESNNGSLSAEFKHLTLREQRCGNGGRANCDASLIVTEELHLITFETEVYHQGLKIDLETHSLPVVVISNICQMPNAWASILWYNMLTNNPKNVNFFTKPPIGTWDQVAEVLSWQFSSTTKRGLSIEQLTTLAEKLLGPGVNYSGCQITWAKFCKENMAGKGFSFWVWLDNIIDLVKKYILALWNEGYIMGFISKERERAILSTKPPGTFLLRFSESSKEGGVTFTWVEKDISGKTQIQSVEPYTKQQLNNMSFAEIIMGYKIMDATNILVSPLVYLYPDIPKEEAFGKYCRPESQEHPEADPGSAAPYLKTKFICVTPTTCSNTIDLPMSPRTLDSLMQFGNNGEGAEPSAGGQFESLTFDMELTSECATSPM
UniProt P40763, 2-770 limits assumed: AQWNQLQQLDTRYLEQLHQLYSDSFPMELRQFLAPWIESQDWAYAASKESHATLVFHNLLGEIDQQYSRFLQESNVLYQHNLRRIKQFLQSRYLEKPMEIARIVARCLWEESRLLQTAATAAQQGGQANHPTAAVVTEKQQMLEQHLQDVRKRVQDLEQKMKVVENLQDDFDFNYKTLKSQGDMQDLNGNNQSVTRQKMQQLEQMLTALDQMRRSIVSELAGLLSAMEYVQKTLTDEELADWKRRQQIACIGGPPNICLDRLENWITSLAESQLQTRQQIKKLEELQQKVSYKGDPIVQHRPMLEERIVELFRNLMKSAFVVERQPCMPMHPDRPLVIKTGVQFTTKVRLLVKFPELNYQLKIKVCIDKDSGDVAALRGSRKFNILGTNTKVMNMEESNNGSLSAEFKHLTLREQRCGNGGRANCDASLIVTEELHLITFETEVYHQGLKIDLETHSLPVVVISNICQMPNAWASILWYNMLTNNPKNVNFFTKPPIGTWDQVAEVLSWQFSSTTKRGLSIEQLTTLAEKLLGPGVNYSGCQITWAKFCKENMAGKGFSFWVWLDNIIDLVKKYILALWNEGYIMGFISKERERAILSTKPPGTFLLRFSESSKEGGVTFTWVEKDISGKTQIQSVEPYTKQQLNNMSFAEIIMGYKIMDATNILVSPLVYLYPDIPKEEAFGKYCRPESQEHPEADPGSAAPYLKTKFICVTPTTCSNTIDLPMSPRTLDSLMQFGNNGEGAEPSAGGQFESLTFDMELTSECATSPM

Stat3:hSIE complex = molecular target: T1, Stat3:hSIE complex (Homo sapiens, UniProt P40763); test: Electrophoretic mobility shift assay (Stat3 DNA binding, hSIE probe); type: biochemical; settings: extracts of IL-6-stimulated HepG2 cells, compound 300 μM
T1 construct: endogenous in cells; host or cells: HepG2
Method: Electrophoretic mobility shift assays were performed using whole-cell extracts prepared from HepG2 cells without and with stimulation with IL-6 (30 ng/ml) for 30 min. Protein (20 μg) was incubated with radiolabeled duplex oligonucleotide (hSIE) and DMSO without or with the indicated compounds (300 uM) for 60 minutes at 37° C. then separated by PAGE. The gel was dried and autoradiographed; the portion of the gel corresponding to the Stat3-bound hSIE band is shown. Data shown are representative of 2 studies.
Electrophoretic Mobility Shift Assay (EMSA): EMSA was performed using the hSIE radiolabeled duplex oligonucleotide as a probe as described (Tweardy et al., 1995). Briefly, high salt extracts were prepared from HepG2 cells incubated without or with IL-6 (30 ng/ml) for 30 minutes. Protein concentration was determined by Bradford Assay and 20 ug of extract was incubated with compound (300 uM) for 60 minutes at 37° C. […] Gels were dried and autoradiographed.
Once in the nucleus, Stat3 dimers bind to specific DNA elements to activate and, in some instances, repress gene transcription. […] Compounds that bind to the phosphopeptide-binding site of Stat3 might be expected to do the same. […]

| SMILES | pIC50 [1] | amount of hSIE shifted (Stat3:hSIE band intensity) (Stat3:hSIE complex) |
| --- | --- | --- |
| O=C(O)CSc1cc(NS(=O)(=O)c2ccc(C(=O)O)cc2)c2ccccc2c1O [Cpd188, 4-[({3-[(carboxymethyl)thio]-4-hydroxy-1-naphthyl}amino)sulfonyl]benzoic acid] | 4.70 | – |
| CCN1C(=O)C(=Cc2ccc(-c3ccc(C(=O)O)cc3)o2)SC1=S [Cpd30, 4{5-[(3-ethyl-4-oxo-2-thioxo-1,3-thiazolidin-5-ylidene)methyl]-2-furyl}benzoic acid] | 4.52 | – |
| COC(=O)Cc1c(C)c2ccc(OCc3ccc(C(=O)OC)cc3)c(C)c2oc1=O [Cpd3-7, methyl 4-({[3-(2-methyoxy-2-oxoethyl)-4,8-dimethyl-2-oxo-2H-chromen-7-yl]oxy}methyl)benzoate] | 3.86 | reduced the amount of hSIE shifted by half or greater |

From patent US10112933B2, “Methods and compositions for treatment of fibrosis” (Baylor College of Medicine, priority 2013, dated 2018)
